Measured values as given in US5248796A, “Taxol derivatives” (Bristol-Myers Squibb Company, priority 1992, dated 1993).

Test system: HCT-116/VM46 human colon carcinoma cells
Experiment: In vitro cytotoxicity, XTT assay, HCT-116/VM46 cells (teniposide-resistant, multidrug resistance phenotype)
Format: cell-based
Conditions: for fold resistance relative to HCT116 cells: HCT-116/VM46 relative to HCT116, value in parenthesis, 4320 min; for IC50: read-out: IC50 HCT-116/VM46, HCT-116/VM46, teniposide-resistant, multidrug resistance phenotype, XTT, 72 hours, 37° C.

Row | SMILES | fold resistance relative to HCT116 cells [fold] | IC50 [nM]
1 | C=C1C2=CC(=O)[C@@]3(C)[C@H]([C@H](OC(=O)c4ccccc4)[C@](O)(C[C@@H]1OC(=O)[C@H](O)[C@@H](NC(=O)c1ccccc1)c1ccccc1)C2(C)C)[C@]1(OC(C)=O)CO[C@@H]1C[C@@H]3O [Example 9, 10-Desacetoxy-11,12-dihydrotaxol-10,12(18)-diene] | 23 | 860
2 | CC(=O)O[C@@]12CO[C@@H]1C[C@H](OC(=O)C(F)Cl)[C@@]1(C)C(=O)CC3=C(C)[C@@H](OC(=O)[C@H](O)[C@@H](NC(=O)c4ccccc4)c4ccccc4)C[C@@](O)([C@@H](OC(=O)c4ccccc4)[C@H]21)C3(C)C (some centres unmarked) [Example 4, 7-O-chlorofluoroacetyl-10-desacetoxytaxol] | 158 | 1260
3 | C=C1C2=CC(=O)[C@]3(C)[C@@H](OC(=O)C(F)Cl)C[C@H]4OC[C@@]4(OC(C)=O)[C@H]3[C@H](OC(=O)c3ccccc3)[C@](O)(C[C@@H]1OC(=O)[C@H](O)[C@@H](NC(=O)c1ccccc1)c1ccccc1)C2(C)C (some centres unmarked) [Example 3, 7-O-chlorofluoroacetyl-10-desacetoxy-11,12-dihydrotaxol-10,12(18)-diene] | 51 | 1950
4 | C=C1C2=CC(=O)[C@]3(C)[C@H](O)C[C@H]4OC[C@@]4(OC(C)=O)[C@H]3[C@H](OC(=O)c3ccccc3)[C@](O)(C[C@@H]1OC(=O)[C@H](O)[C@@H](NC(=O)c1ccccc1)c1ccccc1)C2(C)C [Example 16, 10-Desacetoxy-11,12-dihydro-7-epitaxol-10,12(18)-diene] | 21 | 855
